Measurements reported in patent EP1210937A2, “Device for topical treatment of acne and its method of manufacture” (priority 1996, dated 1997).
Values joined by “and” are separate entries in the source; they are usually repeats but may differ in a detail not shown here. Equal entries are not always repeated.

System: guinea pigs
Experiment: Delayed Contact Hypersensitivity test - Modified Buehler sensitization test
Format: in vivo
Details: one value per guinea pig
Protocol: A Delayed Contact Hypersensitivity test, in compliance with the FDA Requirements per 9 CFR 2.31, was performed using patches containing salicylic acid, as disclosed in the preferred embodiments, in order to determine the capacity of the test substance to induce a systemic hypersensitivity response.
One group of 20 guinea pigs was exposed to the test material patch and one group of 10 guinea pigs was exposed to Dinitrochlorobenzene (DNCB), a known sensitizer. The day before dosing, the animals were clipped free of hair, as close to the skin as possible, using electric clippers.
The test material patch was applied to the clipped area of each of the 20 guinea pigs and held in place with a non-irritant tape. The patches were left in place for 6 hours and then removed. The test sites were scored for erythema at 24 and 48 hours post application. This procedure was repeated at the same site once a week for the next two weeks for a total of three 6-hour exposures. After the last patch application the animals remained untreated for approximately two weeks.
To the positive control group of 10 guinea pigs, a solution of 0.75% of DNCB in 50 % ethanol was applied and scored as previously described.
After the two week rest, the test group and the positive control group were challenged on naive sites. The test material was applied to the test group and the DNCB to the positive control group. The procedure employed was as described above, except skin evaluations were made at 24, 48 and 72 hours post application.

O=[N+]([O-])c1ccc(Cl)c([N+](=O)[O-])c1 [positive control, Dinitrochlorobenzene]
Individual animal scores. Erythema (challenge phase on naive sites, 24 h post application): 2 (2×) and 1 (8×)
Individual animal scores. Erythema (challenge phase on naive sites, 48 h post application): 1 (5×) and 0.5 (5×)
Individual animal scores. Erythema (challenge phase on naive sites, 72 h post application): 0.5 (9×) and 0
Individual animal scores. Erythema (induction phase, Week 1, 24 h post application): 1 (7×) and 0.5 (3×)
Individual animal scores. Erythema (induction phase, Week 1, 48 h post application): 0 (6×) and 0.5 (4×)
Individual animal scores. Erythema (induction phase, Week 2, 24 h post application): 1 (8×) and 0.5 (2×)
Individual animal scores. Erythema (induction phase, Week 2, 48 h post application): 1 (4×) and 0.5 (4×) and 0 (2×)
Individual animal scores. Erythema (induction phase, Week 3, 24 h post application): 2 (7×) and 1 (3×)
Individual animal scores. Erythema (induction phase, Week 3, 48 h post application): 1 (9×) and 2
